OPERA 2.9 data: logP (octanol/water) values

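OPERA's authors assembled the values from existing databases and did not measure them anew. The files give a single number for a compound and property, which may rest on several reports. How each value was measured is not recorded, so precision varies. Where a salt, mixture or single isomer is drawn, the source does not say that exactly this form was tested. Some upstream entries may be estimates or bounds without being marked so.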

The octanol-water partition coefficient is given as log10; larger values mean a more lipophilic compound.
"via" names the databases from which the curators took the value.

CC(C)COC(=O)c1ccccc1O is reported with log Kow 4.09 (via eChemPortal).
Nc1nc(-c2ccc3ccccc3c2)cs1 is reported with log Kow 3.59 (via eChemPortal).
COc1cc(C#N)cc(OC)c1O is reported with log Kow 1.33 (via eChemPortal).
CNS(=O)(=O)CCc1ccc2[nH]cc(C3CCN(C)CC3)c2c1 is reported with log Kow 1.6 (via PubChem).
CCOC(=O)CCC(C)=O is reported with log Kow 0.324 (via eChemPortal).
COCCOCCOCCOB(OCCOCCOCCOC)OCCOCCOCCOC is reported with log Kow -0.585 (via eChemPortal).
Nc1c(/N=N/c2ccc(S(=O)(=O)[O-])cc2S(=O)(=O)[O-])cc(S(=O)(=O)[O-])c2cc(S(=O)(=O)[O-])c(/N=N/c3ccc([N+](=O)[O-])cc3S(=O)(=O)[O-])c(O)c12.[Na+].[Na+].[Na+].[Na+].[Na+] is reported with log Kow -4.38 (via eChemPortal).
CC[C@@H]([C@H](C)O)n1ncn(-c2ccc(N3CCN(c4ccc(OC[C@@H]5CO[C@@](Cn6cncn6)(c6ccc(F)cc6F)C5)cc4)CC3)cc2)c1=O is reported with log Kow 5.5 (via PubChem).
Cc1ccc(S(=O)(=O)OCCc2cccs2)cc1 is reported with log Kow 2.8 (via eChemPortal).
Clc1ccc(-c2cccc(Cl)c2Cl)c(Cl)c1 is reported with log Kow 5.76 (via OCHEM).
CC(C)CN(C=O)CC(C)C is reported with log Kow 1.9 (via eChemPortal).
CCN(Cc1ccncc1)C(=O)C(CO)c1ccccc1 (stereo not drawn) is reported with log Kow 1.3 (via PubChem).
Nc1ccc(C(=O)NCCC(=O)O)cc1 is reported with log Kow -1.19 (via eChemPortal).
C=CC1=C(C(=O)O)N2C(=O)[C@@H](NC(=O)/C(=N\OCC(=O)O)c3csc(N)n3)[C@H]2SC1 is reported with log Kow -0.4 (via PubChem).
CCCC(=O)NC(C)C(=O)O (stereo not drawn) is reported with log Kow 0.965 (via eChemPortal).
CCOC(=O)N(CC)c1ccccc1 is reported with log Kow 2.28 (via eChemPortal).
CCCCCCCCCCCCCCCCCCOCCCCCCCCCCCCCCCCCC is reported with log Kow 4.1 (via eChemPortal).
CCCOC(C)OCCc1ccccc1 (stereo not drawn) is reported with log Kow 4.1 (via eChemPortal).
C[C@](N)(Cc1ccc(O)c(O)c1)C(=O)O is reported with log Kow -1.79 (via PubChem).
O=S(=O)(O)CCN1CCN(CCS(=O)(=O)O)CC1 is reported with log Kow -2.7 (via eChemPortal).
O=c1ccnc2n1CCCC2 is reported with log Kow -0.14 (via OCHEM).
CC1CCC(C(C)C)C(OCC(O)CO)C1 (stereo not drawn) is reported with log Kow 3.5 (via eChemPortal).
C=CC(C)(O)CCCC(C)C (stereo not drawn) is reported with log Kow 3.69 (via eChemPortal).
CNCCCC1c2ccccc2C=Cc2ccccc21 is reported with log Kow 4.7 (via PubChem).
O=c1c2cc3[nH]c4c(Cl)cccc4c(=O)c3cc2[nH]c2c(Cl)cccc12 is reported with log Kow 1.52 (via eChemPortal).
O[C@@H]1[C@@H]2O[C@@H]3[C@@H](O)[C@H](O)[C@H](O[C@@H]4[C@@H](O)[C@H](O)[C@H](O[C@@H]5[C@@H](O)[C@H](O)[C@H](O[C@@H]6[C@@H](O)[C@H](O)[C@H](O[C@@H]7[C@@H](O)[C@H](O)[C@H](O[C@@H]8[C@@H](O)[C@H](O)[C@H](O[C@@H]9[C@@H](O)[C@H](O)[C@H](O[C@H]([C@H]1O)[C@H](CBr)O2)O[C@H]9CBr)O[C@H]8CBr)O[C@H]7CBr)O[C@H]6CBr)O[C@H]5CBr)O[C@H]4CBr)O[C@H]3CBr is reported with log Kow 3.5 (via eChemPortal).
CC1=NN(c2ccc(S(=O)(=O)[O-])cc2)C(=O)C1/N=N/c1ccc(C)c(S(=O)(=O)Nc2ccccc2)c1.[Na+] (stereo partly drawn) is reported with log Kow -0.8 (via eChemPortal).
Cc1ccsc1C(=CCCN1CCC[C@@H](C(=O)O)C1)c1sccc1C is reported with log Kow 2.6 (via PubChem).
C=CC(C)(CCC=C(C)C)OC(=O)C(C)C (stereo not drawn) is reported with log Kow 5.5 (via eChemPortal).
CN(C)CCOC(=O)C(c1ccccc1)C1(O)CCCC1 (stereo not drawn) is reported with log Kow 2.4 (via PubChem).
COC(=O)C(C#N)=Cc1ccc(Br)o1 is reported with log Kow 2.41 (via OCHEM).
CC(C)(C#N)CC1=CCC2CC1C2(C)C (stereo not drawn) is reported with log Kow 4.35 (via eChemPortal).

The 5 lowest values of log Kow among the entries above:

{"smiles": "Nc1c(/N=N/c2ccc(S(=O)(=O)[O-])cc2S(=O)(=O)[O-])cc(S(=O)(=O)[O-])c2cc(S(=O)(=O)[O-])c(/N=N/c3ccc([N+](=O)[O-])cc3S(=O)(=O)[O-])c(O)c12.[Na+].[Na+].[Na+].[Na+].[Na+]", "log Kow": "-4.38", "via": "eChemPortal"}
{"smiles": "O=S(=O)(O)CCN1CCN(CCS(=O)(=O)O)CC1", "log Kow": "-2.7", "via": "eChemPortal"}
{"smiles": "C[C@](N)(Cc1ccc(O)c(O)c1)C(=O)O", "log Kow": "-1.79", "via": "PubChem"}
{"smiles": "Nc1ccc(C(=O)NCCC(=O)O)cc1", "log Kow": "-1.19", "via": "eChemPortal"}
{"smiles": "CC1=NN(c2ccc(S(=O)(=O)[O-])cc2)C(=O)C1/N=N/c1ccc(C)c(S(=O)(=O)Nc2ccccc2)c1.[Na+]", "stereo": "stereo partly drawn", "log Kow": "-0.8", "via": "eChemPortal"}

Data: OPERA 2.9 data sets, kmansouri/OPERA on GitHub.